This is an account of results in ChEMBL document CHEMBL1140690, “5-((4-Aminopiperidin-1-yl)methyl)pyrrolotriazine dual inhibitors of EGFR and HER2 protein tyrosine kinases” (Bioorg Med Chem Lett, 2007).

Amino acid sequences for entries named in this document (tags omitted).
UniProt P00533, whole entry: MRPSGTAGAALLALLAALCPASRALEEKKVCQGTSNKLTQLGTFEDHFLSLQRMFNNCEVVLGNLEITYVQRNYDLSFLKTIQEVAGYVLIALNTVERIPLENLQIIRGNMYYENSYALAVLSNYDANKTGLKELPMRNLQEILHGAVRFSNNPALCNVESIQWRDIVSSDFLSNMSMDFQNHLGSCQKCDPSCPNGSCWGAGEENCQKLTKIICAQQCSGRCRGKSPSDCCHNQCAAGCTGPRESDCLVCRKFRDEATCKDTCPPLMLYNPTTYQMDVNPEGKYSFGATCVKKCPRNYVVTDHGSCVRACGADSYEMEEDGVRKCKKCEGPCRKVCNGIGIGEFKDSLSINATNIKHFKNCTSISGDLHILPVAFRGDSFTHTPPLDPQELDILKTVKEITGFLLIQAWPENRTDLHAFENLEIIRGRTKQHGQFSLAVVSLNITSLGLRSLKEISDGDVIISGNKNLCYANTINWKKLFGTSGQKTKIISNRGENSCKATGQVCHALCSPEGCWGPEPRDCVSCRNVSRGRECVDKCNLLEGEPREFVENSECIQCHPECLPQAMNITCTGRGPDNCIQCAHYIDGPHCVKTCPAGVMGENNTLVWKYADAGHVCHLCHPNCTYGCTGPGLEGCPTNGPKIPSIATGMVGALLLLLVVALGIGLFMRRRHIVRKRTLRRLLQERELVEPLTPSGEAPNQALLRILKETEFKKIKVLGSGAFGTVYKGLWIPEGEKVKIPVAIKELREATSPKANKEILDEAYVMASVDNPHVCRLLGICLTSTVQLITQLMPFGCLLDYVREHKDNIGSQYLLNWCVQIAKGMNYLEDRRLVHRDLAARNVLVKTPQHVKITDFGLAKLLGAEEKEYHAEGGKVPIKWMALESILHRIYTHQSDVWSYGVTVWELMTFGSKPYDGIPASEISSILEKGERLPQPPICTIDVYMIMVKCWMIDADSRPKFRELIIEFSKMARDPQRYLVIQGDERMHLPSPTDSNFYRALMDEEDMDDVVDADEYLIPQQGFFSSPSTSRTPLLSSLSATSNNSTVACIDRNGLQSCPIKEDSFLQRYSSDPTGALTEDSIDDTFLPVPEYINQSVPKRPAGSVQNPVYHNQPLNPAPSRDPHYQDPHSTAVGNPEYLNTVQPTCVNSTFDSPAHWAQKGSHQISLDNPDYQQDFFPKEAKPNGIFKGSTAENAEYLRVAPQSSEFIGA

For the assay, the target named is Epidermal growth factor receptor (Homo sapiens, UniProt P00533). Description: Inhibition of human recombinant EGFR expressed in insect Sf9 cells.

In the case of `Fc1cccc(COc2ccc(Nc3ncnn4ccc(COC[C@@H]5CNCCO5)c34)cc2Cl)c1`, the half-maximal inhibitory concentration (IC50) was 560 nM.

What is called IC50 is the concentration needed to halve the response being measured.
